Results reported in patent publication US6579900B2, “Anandamide amidase inhibitors as analgesic agents” (priority 1996, dated 2003).

Sequences of proteins named here, by UniProt entry; tags and fusion partners are left off.
UniProt P20272, whole entry: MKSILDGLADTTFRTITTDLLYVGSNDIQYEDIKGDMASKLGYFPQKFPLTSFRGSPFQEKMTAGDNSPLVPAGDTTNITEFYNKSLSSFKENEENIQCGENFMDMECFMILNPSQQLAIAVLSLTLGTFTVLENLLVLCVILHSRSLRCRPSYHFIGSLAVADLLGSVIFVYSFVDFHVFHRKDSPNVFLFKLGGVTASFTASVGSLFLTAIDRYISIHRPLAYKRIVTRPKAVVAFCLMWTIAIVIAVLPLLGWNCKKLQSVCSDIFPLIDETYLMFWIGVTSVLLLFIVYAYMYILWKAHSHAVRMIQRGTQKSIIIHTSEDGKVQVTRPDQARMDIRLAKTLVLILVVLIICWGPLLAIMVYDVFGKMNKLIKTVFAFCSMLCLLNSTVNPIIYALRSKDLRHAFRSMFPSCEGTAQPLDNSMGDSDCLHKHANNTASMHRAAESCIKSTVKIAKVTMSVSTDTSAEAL

Biological target: T1, CB1 receptor (Rattus norvegicus, UniProt P20272)
T1 construct: brain membranes were prepared from frozen rat brains; from tissue; host or cells: membranes from frozen rat brains
Type: binding

## CCCCCCCCCCCCCCCCS(=O)(=O)F [palmitylsulfonyl fluoride]
  binding affinity for the CB1 receptor relative to anandamide: about 10 times lower
FIG. 3
  efficiency of binding to CB1 receptor relative to arachidonoyl ethanolamide: less than 10%
